Consider one compound from paper PMC4422330 (Bioorganic & medicinal chemistry letters, 2008).

Chains of the proteins cited; added tags and fusions are not shown. Lines headed by an entry give the natural chain unless they say otherwise; changes in a name come on top.
UniProt Q8I302: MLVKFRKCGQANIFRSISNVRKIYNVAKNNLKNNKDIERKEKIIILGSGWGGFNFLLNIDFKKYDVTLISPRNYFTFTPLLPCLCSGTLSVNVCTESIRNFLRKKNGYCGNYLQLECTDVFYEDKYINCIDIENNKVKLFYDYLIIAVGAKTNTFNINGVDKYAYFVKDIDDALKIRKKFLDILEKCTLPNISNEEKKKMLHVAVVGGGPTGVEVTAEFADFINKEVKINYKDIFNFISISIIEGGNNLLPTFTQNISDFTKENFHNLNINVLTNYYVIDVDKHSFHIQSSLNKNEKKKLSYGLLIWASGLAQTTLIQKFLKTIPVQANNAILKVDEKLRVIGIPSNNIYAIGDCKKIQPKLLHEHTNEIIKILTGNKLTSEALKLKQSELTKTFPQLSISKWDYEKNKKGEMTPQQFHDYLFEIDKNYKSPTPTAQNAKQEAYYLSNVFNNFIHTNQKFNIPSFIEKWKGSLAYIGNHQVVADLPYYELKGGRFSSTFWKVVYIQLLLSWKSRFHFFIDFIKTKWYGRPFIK

For one test, the target named is pfNDH2 (Plasmodium falciparum, UniProt Q8I302). Description: biochemical. It is filed as biochemical.
For a further test, the target named is T1, pfDHOD (Plasmodium falciparum, UniProt Q08210).
T1 sequence (Q08210 24-569): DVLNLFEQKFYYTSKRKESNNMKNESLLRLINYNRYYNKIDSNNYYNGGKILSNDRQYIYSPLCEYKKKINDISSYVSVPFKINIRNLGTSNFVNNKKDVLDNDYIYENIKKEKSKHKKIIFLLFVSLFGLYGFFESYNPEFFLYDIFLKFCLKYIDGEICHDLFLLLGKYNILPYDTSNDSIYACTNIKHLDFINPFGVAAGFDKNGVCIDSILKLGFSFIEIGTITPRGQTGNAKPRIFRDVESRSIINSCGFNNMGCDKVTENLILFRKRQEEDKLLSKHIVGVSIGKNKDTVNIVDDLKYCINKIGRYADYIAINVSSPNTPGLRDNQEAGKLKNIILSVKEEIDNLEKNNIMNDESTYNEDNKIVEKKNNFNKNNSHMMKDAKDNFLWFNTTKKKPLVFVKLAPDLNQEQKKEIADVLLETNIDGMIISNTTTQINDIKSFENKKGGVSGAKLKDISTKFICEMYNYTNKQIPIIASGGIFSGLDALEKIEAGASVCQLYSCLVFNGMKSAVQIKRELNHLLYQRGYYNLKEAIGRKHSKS
Description: biochemical.

Usually IC50 stands for the midpoint of a concentration-inhibition curve.

On to `[Cl-].c1ccc2c(c1)[I+]c1ccccc1-2` [DPI, Dibenziodolium chloride], for which the IC50 against pfNDH2 and against pfDHOD was over 10 µM in each case. Further, the “inhibition of pfNDH2 activity (in words)” value on pfNDH2 (purified recombinant pfNDH2, concentrations of up to 10 µM) is listed as “do not inhibit”.
